Data: patent publication US5552308A, “CDNA clone of a rat serotonin transporter and protein encoded thereby” (priority 1991, dated 1996)

By UniProt entry, the sequences of proteins in these tests, tags left out.
UniProt P31652, whole entry: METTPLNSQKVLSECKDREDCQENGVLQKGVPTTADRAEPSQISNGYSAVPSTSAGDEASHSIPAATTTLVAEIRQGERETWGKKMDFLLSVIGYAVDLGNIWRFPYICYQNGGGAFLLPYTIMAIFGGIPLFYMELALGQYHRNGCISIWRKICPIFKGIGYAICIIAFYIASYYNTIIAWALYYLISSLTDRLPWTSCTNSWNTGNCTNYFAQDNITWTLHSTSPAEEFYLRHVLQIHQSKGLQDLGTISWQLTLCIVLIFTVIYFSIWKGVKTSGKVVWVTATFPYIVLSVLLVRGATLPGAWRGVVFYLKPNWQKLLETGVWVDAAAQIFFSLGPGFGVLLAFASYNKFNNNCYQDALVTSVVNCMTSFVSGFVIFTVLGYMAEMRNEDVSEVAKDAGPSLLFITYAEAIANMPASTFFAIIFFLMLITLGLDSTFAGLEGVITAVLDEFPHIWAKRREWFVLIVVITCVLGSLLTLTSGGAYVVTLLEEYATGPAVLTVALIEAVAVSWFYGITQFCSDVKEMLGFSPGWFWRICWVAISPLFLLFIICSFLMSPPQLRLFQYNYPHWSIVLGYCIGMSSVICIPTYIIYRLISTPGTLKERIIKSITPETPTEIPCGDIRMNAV

Molecular target: 5-HT transporter (Rattus norvegicus, UniProt P31652)
Test: Inhibition of 3H-5-HT uptake in CV-1 cells transfected with the 5-HT transporter cDNA
Type: cell-based
Settings: for inhibition of 5-HT uptake (in words): CV-1 cells transfected with 5HTT cDNA

Row | SMILES | Ki | inhibition of 5-HT uptake (in words)
1 | CCN[C@@H](C)Cc1cccc(C(F)(F)F)c1 [S(+)fenfluramine] | 129 ± 28 nM | also blocks uptake
2 | COC(=O)[C@H]1[C@@H](OC(=O)c2ccccc2)C[C@@H]2CC[C@H]1N2C [cocaine] | 1080 ± 150 nM | 
3 | Fc1ccc([C@@H]2CCNC[C@H]2COc2ccc3c(c2)OCO3)cc1 [paroxetine] | 3.1 ± 0.8 nM | potently inhibited
4 | COC(=O)[C@H]1[C@H]2C[C@@H]3c4[nH]c5cc(OC)ccc5c4CCN3C[C@H]2C[C@@H](OC(=O)c2cc(OC)c(OC)c(OC)c2)[C@@H]1OC [reserpine] | > 10000 nM | ineffective at blocking 5-HT uptake
